Experimental data taken from patent EP0632806B1 (priority 1992, dated 1993).

Test system: rats
Test: Estimated LD50 in rats
Procedure: In order to assess whether a compound has the required pharmacological activity within the present invention, it is subjected to a series of tests. In the first of such tests, a compound is given as increasing (doubling with each dose) intravenous boluses every 8 minutes to a pentobarbital anesthetized rat. The effects of the compound on blood pressure, heart rate and the ECG are measured 30 seconds and 8 minutes after each dose. Increasing doses are given until the animal dies. The cause of death is identified as being of respiratory or cardiac origin. This test gives an indication as to whether the compound is blocking sodium channels and/or potassium channels, and in addition gives information about acute toxicity. The indices of sodium channel blockade are increasing P-R interval and QRS widening of the ECG. Potassium channel blockade results in Q-T interval prolongation of the ECG.
It is estimated that the LD50 of compound 10 in rats is 16 µmol/kg. For compound 1, the estimated LD50 values in rats is 32 µmol/kg and in mice is 27 µmol/kg. Toxic symptoms of doses exceeding what is required for antiarrhythmic activity include fall in blood pressure or heart rate, and alteration of asystole/idioventricular rhythms. […]

## CN(C(=O)Cc1cccc2occc12)[C@@H]1CC[C@]2(CCCO2)C[C@H]1N1CCCC1
  LD50: 16 µmol/kg
